Results on one compound are retold here after ChEMBL document CHEMBL1139504, “Discovery of the first potent, selective 5-hydroxytryptamine1D receptor antagonist” (J Med Chem, 2005).

The chains behind the UniProt entries cited, without tags or fusion partners.
UniProt P08908, whole entry: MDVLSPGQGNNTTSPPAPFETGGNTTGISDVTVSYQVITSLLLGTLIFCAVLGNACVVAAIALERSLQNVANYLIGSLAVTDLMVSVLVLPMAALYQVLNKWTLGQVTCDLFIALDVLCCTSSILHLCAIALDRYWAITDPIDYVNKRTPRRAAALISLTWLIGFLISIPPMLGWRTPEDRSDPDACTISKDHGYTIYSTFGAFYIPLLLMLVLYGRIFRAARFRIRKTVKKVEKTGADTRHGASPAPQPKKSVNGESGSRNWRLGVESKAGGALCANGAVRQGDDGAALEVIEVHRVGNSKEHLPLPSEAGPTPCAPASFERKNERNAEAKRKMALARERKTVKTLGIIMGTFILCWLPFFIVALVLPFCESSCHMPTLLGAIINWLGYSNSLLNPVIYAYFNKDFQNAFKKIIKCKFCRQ
UniProt P28222, whole entry: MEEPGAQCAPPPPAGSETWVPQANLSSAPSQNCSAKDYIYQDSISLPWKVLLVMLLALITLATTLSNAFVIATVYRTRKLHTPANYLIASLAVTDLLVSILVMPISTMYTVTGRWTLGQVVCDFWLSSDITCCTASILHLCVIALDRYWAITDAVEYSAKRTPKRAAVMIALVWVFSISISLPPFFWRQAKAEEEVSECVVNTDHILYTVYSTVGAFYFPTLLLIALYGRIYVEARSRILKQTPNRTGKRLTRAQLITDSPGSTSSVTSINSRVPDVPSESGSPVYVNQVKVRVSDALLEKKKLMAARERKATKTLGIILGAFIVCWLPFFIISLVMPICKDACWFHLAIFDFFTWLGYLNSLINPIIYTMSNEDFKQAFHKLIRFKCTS

Molecules are shown by their SMILES.

A word on the Ki: it is the equilibrium dissociation constant of an inhibitor or competing ligand from its target. High values mean a looser hold on the target, low ones a stronger hold on the target.

Test [1] deals with 5-hydroxytryptamine receptor 1A (Homo sapiens, UniProt P08908). The test can be described thus: Displacement of [3H]WAY-100635 from human 5-hydroxytryptamine 1A receptor expressed in CHO cells. Format: cell-based. In a few lines:
(§1)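 Radioligand displacement binding on membranes of cloned human receptors. Each determination lies within 0.3 log units of the mean.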
(In general: Loss of bound radioactivity is the signal in a displacement assay; it reports binding, not function.)

Test [2] addresses 5-hydroxytryptamine receptor 1B (Homo sapiens, UniProt P28222). The test can be described thus: Displacement of [3H]5-HT from human 5-hydroxytryptamine 1B receptor expressed in CHO cells. Format: cell-based. A digest of the protocol:
as §1

Turning to `Cc1ccc2c(OCCN3CCC(Cc4ccc5c(c4)NC(=O)CO5)CC3)cccc2n1`, the values for the Ki in test [1] and in test [2] were 2.51 nM and 10 nM, respectively.
